Experimental findings from patent US20050191735A1, “Oxidoreductase” (priority 2003, published 2005) are described below.

This data set deals with reduced nicotinamide adenine dinucleotide phosphate. Put plainly: purified protein, by the assay type. The settings on record: other: potassium phosphate buffer pH=7.0, enzyme solution 1:300.

In the case of “recombinant L. reuteri oxidoreductase (Limosilactobacillus reuteri subsp. reuteri)”, the Km turned out to be 4 ± 1.8 µM.

One may read the Km as the substrate concentration at which the rate is half of its maximum.
